Assay results reported in patent US20200299400A1 (published 2020).

Molecular target: T1, human GITR (human, UniProt Q9Y5U5 26-241)
T1 sequence (looked up): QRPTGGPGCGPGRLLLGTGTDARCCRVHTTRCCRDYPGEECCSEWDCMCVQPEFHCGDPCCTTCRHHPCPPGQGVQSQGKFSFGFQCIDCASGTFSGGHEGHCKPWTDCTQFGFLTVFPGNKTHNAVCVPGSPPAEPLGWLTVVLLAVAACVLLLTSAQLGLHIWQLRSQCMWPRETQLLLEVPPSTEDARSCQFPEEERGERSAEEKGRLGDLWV
Assay: cell-based or functional assay

B1: GITR.6-IgG1f (antibody)
heavy: QVQLVESGGGVVQPGRSLRLSCAASGFTFSSYGMHWVRQAPGKGLEWVAVIWYEGSNKYYADSVKGRFTISRDNSKNTLYLQMNSLRAEDTAVYYCARGGSMVRGDYYYGMDVWGQGTTVTVSSASTKGPSVFPLAPSSKSTSGGTAALGCLVKDYFPEPVTVSWNSGALTSGVHTFPAVLQSSGLYSLSSVVTVPSSSLGTQTYICNVNHKPSNTKVDKRV[left out - human IgG1 Fc]
light: AIQLTQSPSSLSASVGDRVTITCRASQGISSALAWYQQKPGKAPKLLIYDASSLESGVPSRFSGSGSGTDFTLTISSLQPEDFATYYCQQFNSYPYTFGQGTKLEIKRTVAAPSVFIFPPSDEQLKSGTASVVCLLNNFYPREAKVQWKVDNALQSGNSQESVTEQDSKDSTYSLSSTLTLSKADYEKHKVYACEVTHQGLSSPVTKSFNRGEC
NFKB signaling (phospho-p65), CD4+ T cells, Emax: 10.8% | NFKB signaling (phospho-p65), CD8+ T cells, Emax: 27%
